{"source": "patent US20200345862A1", "about": "“TRANSITION METAL-BASED FUNCTIONAL MOIETIES FOR PREPARING CELL TARGETING CONJUGATES” (priority 2017, published 2020)", "details": "[NaCl]=200 mM, HEPES pH 8.1, 47° C., 4 h; FIG. 4"}
{"substance": "[PtCl((Fe)DFO-pip)(ethane-1,2-diamine)]^+ TFA^− [4a]", "values": [{"measurement": "concentration of the semi-final product after incubation (stability)", "result": 94, "unit": "%"}]}
